Measurements from article PMC8050214 (Scientific Reports, 2021).

Chains of the proteins cited; added tags and fusions are not shown. Lines headed by an entry give the natural chain unless they say otherwise; changes in a name come on top.
UniProt P14416, whole entry: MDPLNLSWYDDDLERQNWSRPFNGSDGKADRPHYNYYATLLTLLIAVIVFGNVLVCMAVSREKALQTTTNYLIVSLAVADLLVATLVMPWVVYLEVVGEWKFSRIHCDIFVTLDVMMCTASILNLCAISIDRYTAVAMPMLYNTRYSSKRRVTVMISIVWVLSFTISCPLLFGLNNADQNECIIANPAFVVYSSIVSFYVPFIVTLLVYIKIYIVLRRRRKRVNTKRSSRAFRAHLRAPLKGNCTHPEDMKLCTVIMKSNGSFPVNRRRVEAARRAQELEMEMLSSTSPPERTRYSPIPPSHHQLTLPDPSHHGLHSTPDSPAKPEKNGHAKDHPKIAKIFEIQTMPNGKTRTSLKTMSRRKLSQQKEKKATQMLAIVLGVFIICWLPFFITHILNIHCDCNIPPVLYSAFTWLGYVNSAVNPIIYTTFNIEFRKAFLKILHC

Biological target: T1, hD2LR (human dopamine D2 receptor, long splice variant) (Homo sapiens, UniProt P14416)
T1 construct: gene DRD2; full-length long isoform, stably expressed in Flp-In HEK293 cells (G protein BRET assay); C351I G alpha subunits co-transfected as sensors; hD2LR-NLuc fusion with GRK2-Venus in the GRK2 recruitment assay (SCH23390 row)
Experiment: BRET G protein (GαoA) activation, Gβγ-Venus / masGRK3ct-NLuc release
Type: cell-based

- EC50: 0.912 nM
Compound: Oc1ccc2[nH]cc(CCCCN3CC=C(c4ccccc4)CC3)c2c1 [Roxindole]
